# AlphaSeq binding of Ab-14 light chain variants to a spike HR2 peptide

Source: Li et al. 2023 (doi:10.1038/s41467-023-39022-2), MIT Lincoln Laboratory and A-Alpha Bio; data file from the FLAb repository.

Antigen: PDVDLGDISGINAS, a 14-residue peptide of the SARS-CoV-2 spike HR2 region.

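The parent was found by panning a naive human phage display library on the peptide. The variants were designed computationally from a first round of random CDR variants and then made and measured. Group labels follow the data file (Ctrl: baseline library sampled from a position-specific scoring matrix, with some repeated check sequences; Rand: our label for a block that the file lists under HC and that is probably the random mutants of the ten best first-round binders; En: ensemble of fine-tuned language models; GP: Gaussian process model; HC: hill climbing; Gen: genetic algorithm; Gibbs: Gibbs sampling; a sequence that several methods proposed may carry one label only). In AlphaSeq, yeast of one mating type display the scFv and yeast of the other type display the target. The frequency of each diploid, read from paired DNA barcodes, reflects how well the two displayed proteins bind. The ratio of observed to expected reads was calibrated, replicate by replicate, on BCL2-family standards whose Kd was known from biolayer interferometry. Mating was done six times.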

Ab-14 is the parent antibody, in scFv form: VH, then a (GGGGS)3 linker, then VL. The heavy chain is unchanged in all variants.
VH: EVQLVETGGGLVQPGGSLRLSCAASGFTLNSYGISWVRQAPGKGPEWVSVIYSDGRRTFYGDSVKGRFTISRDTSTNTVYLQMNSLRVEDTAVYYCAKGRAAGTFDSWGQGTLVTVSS
VL: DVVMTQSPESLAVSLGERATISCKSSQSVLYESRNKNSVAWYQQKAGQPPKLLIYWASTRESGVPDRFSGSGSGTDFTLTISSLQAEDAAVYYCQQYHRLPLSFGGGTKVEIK

Changes read parent residue, position, new residue, counted from the first residue of the VL shown.
Variants here have at most six changes.
Values are apparent Kd, the geometric mean of the replicates that gave a signal; lower means stronger binding.
An entry "no signal" has no value in the source: the pair was not observed among the diploids in any replicate. This suggests poor binding but is not conclusive.
The range of this assay differs from that of the first round, and the authors advise against merging the two.

With S25L/L30E/W56N/S62Q [GP_Gen] the result was 510 pM (6 of 6 replicates).
With S25L/V29W/L30P/W56N [GP_Gen] the result was 1.2 nM (6 of 6 replicates).
With S26P/V29W/W56N/T59Q [GP_Gen] the result was 610 pM (6 of 6 replicates).
With S25M/S26E/W56G/T59V [GP_HC] the result was 690 pM (6 of 6 replicates).
With S25L/S26E/S33E/W56N/T59Q [GP_Gen] the result was 2.2 nM (6 of 6 replicates).
With S25L/V29D/W56N/S62K [GP_Gen] the result was 890 pM (6 of 6 replicates).
With Q27R/S33T/W56A/S58T/S62Y [Ctrl] the result was 5.9 nM (6 of 6 replicates).
With S25V/Q27W/R34N/W56H/S62D [GP_HC] the result was 3.7 nM (6 of 6 replicates).
With K36S/W56G/S62D [Ctrl] the result was 2.1 nM (6 of 6 replicates).
With S25V/S26Y/Q27P/W56Q [GP_HC] the result was 440 pM (6 of 6 replicates).
With S25M/V29Y [Ctrl] the result was 1.8 nM (6 of 6 replicates).
With V29Y/L30T/W56G [GP_HC] the result was 1.7 nM (6 of 6 replicates).
With S25V/W56E/Q96D [GP_Gen] the result was 2.2 nM (6 of 6 replicates).
With K24H/S25A/V29G/N35V/W56S/T59M [GP_Gibbs] the result was 4.7 nM (6 of 6 replicates).
With S25L/V29F/W56G/Q96E [GP_HC] the result was 650 pM (6 of 6 replicates).
With S25L/W56E/E61C/S62D [GP_Gen] the result was 640 pM (6 of 6 replicates).
With S25F/V29W/W56N/T59Q [GP_Gen] the result was 2.4 nM (6 of 6 replicates).
With S25Q/W56S/H98S [Ctrl] the result was 490 pM (6 of 6 replicates).
With K24S/S25L/W56H/T59L/S62D [GP_HC] the result was 870 pM (6 of 6 replicates).
With Q27D/V29D/P101H [Ctrl] the result was no signal (0 of 6 replicates).
With S26G/Q27C/S28G/S33G/W56G/Q96N [Rand] the result was 21 nM (6 of 6 replicates).
With S33E/W56G [Ctrl] the result was 6.2 nM (6 of 6 replicates).
With V29T/S33F/R34G/N35E/K36S/Y97M [Ctrl] the result was no signal (0 of 6 replicates).
With S25F/S26R [Ctrl] the result was 3.7 nM (6 of 6 replicates).
With S25I/V29Y/W56N/E61C [GP_Gen] the result was 330 pM (6 of 6 replicates).
With S25L/S26Y/V29D/W56N [GP_Gen] the result was 620 pM (6 of 6 replicates).
With W56H [Ctrl] the result was 5.6 nM (6 of 6 replicates).
With S25L/S26M/Q27C/V29M/L30E/W56N [GP_Gibbs] the result was 440 pM (6 of 6 replicates).
With S26I/V29N/R34N/S62I/L102V [Ctrl] the result was no signal (0 of 6 replicates).
With S25L/V29M/W56N/T59Q/E61L [GP_Gen] the result was 620 pM (6 of 6 replicates).
With S25L/V29M/W56N/E61F [GP_Gen] the result was 750 pM (6 of 6 replicates).
With S25L/S26M/V29W/W56N/T59Q/Q96D [GP_Gen] the result was 640 pM (6 of 6 replicates).
With S25V/Q27E/V29W/W56N [GP_Gen] the result was 940 pM (6 of 6 replicates).
With S26G/S28G/K36F/W56G [GP_HC] the result was 3.1 nM (6 of 6 replicates).
With S25L/V29D/W56G/Q96A [GP_Gen] the result was 1.1 nM (6 of 6 replicates).
With S25L/V29M/L30E/W56H/S62E/S103M [GP_Gibbs] the result was 580 pM (6 of 6 replicates).
With S25L/S26E/V29T/L30N/W56N [GP_HC] the result was 2.0 nM (6 of 6 replicates).
With V29Y/L30G/W56G [GP_HC] the result was 840 pM (6 of 6 replicates).
With S25M/Q27P/R34H/W56N/E61M [GP_HC] the result was 910 pM (6 of 6 replicates).
With S25Q/W56D [En_HC] the result was 560 pM (6 of 6 replicates).
With S25V/V29H/W56D/Q96S [GP_Gen] the result was 470 pM (6 of 6 replicates).

Extract of 3 entries:

changes,group,Kd,seen in
S25M/Q27P/R34H/W56N/E61M,GP_HC,910 pM,6 of 6
S25L/V29M/W56N/E61F,GP_Gen,750 pM,6 of 6
Q27R/S33T/W56A/S58T/S62Y,Ctrl,5.9 nM,6 of 6

The authors averaged sequences with at least three values out of six and counted those with two or fewer as poor binders.
The parent sequence was in this pool as ten entries: three were never detected, three once, and four in most replicates, with averages from 2.2 nM to 240 nM.
Nonspecific signal, from three strains lacking the peptide, appeared in 4% of pairings of all light chain designs, centred on 430 nM (5% of these signals below 38 nM); values are not corrected for it.